Experimental data as given in patent US12090225B2 (Avalyn Pharma Inc., priority 2018, dated 2024).

Test: Pattern stability screen of potential salts (40° C./75% RH, XRPD)
Format: physicochemical
Conditions: Initial pattern 1

XRPD pattern after 72 hrs 40° C./75% RH: 1
Substance: Tartrate
